Laboratory results as given in ChEMBL document CHEMBL1146020, “Phosphonothioate and fluoromethylene phosphonate analogues of cyclic phosphatidic acid: Novel antagonists of lysophosphatidic acid receptors” (2006).

The chains behind the UniProt entries cited, without tags or fusion partners. Where a name states a change or a piece, a line headed by the entry shows the natural chain unless it says otherwise.
UniProt Q92633: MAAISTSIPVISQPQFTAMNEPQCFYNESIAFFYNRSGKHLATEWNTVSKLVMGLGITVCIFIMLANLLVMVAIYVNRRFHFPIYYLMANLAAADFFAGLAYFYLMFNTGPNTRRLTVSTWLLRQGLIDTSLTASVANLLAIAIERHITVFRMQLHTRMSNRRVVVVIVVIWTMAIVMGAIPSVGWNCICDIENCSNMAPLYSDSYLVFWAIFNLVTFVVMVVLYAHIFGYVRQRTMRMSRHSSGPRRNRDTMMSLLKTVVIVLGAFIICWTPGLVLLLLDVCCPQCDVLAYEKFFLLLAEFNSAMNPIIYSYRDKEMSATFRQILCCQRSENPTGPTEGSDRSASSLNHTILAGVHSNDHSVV
UniProt Q9HBW0, whole entry, looked up: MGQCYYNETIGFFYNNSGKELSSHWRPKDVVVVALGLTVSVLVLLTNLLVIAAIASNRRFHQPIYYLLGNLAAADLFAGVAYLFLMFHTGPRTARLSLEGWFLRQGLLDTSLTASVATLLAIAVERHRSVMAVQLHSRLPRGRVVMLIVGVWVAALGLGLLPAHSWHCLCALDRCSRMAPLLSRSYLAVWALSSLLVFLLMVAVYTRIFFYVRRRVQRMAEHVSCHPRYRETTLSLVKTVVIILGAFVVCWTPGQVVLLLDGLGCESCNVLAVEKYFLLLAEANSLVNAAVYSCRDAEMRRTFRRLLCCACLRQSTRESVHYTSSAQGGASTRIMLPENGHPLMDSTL

Columns and labels:
[1] = target: Lysophosphatidic acid receptor 1 (Homo sapiens) (UniProt Q92633); experiment: Activity at human LPA1 receptor expressed in RH7777 cells by calcium mobilization assay; details: filed as antagonist
[2] = target: Lysophosphatidic acid receptor 1 (Homo sapiens) (UniProt Q92633); experiment: Activity at human LPA1 receptor expressed in RH7777 cells at 30 uM relative to LPA by calcium mobilization assay
[3] = target: Lysophosphatidic acid receptor 2 (Homo sapiens) (UniProt Q9HBW0); experiment: Activity at human LPA2 receptor expressed in RH7777 cells at 30 uM relative to LPA by calcium mobilization assay
[4] = target: T1, Lysophosphatidic acid receptor 3 (Homo sapiens) (UniProt Q9UBY5); experiment: Activity at human LPA3 receptor expressed in RH7777 cells at 30 uM relative to LPA by calcium mobilization assay
T1 sequence (whole entry): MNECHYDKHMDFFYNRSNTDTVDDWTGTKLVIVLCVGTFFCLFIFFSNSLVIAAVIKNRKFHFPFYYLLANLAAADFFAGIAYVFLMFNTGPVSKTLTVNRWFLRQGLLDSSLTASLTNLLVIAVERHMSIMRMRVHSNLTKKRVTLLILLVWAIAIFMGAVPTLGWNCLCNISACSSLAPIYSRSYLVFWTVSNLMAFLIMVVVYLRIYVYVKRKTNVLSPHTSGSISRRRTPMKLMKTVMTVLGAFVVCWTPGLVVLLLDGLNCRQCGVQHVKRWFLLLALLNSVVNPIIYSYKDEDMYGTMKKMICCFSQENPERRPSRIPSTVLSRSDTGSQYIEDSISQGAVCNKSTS

SMILES | Activity [1] | inhibition [2] [%] | Emax [3] [%] | Emax [4] [%] | Emax [2] [%]
CCCCCCCCCCCCCCCCCC(=O)OC[C@@H]1CC(F)P(=O)(O)O1 (some centres not stated) | Partial antagonist | 46 | – | – | –
CCCCCCCCCCCCCCCCCC(=O)OC[C@@H]1CC(F)(F)P(=O)(O)O1 | – | – | 82 | 65.4 | 13
CCCCCCCCCCCCCCCCCC(=O)OCC1CCP(O)(=S)O1 (configuration not stated) | Partial antagonist | 64 | – | – | –
